Laboratory results taken from BigSolDB 2.1.

CC[C@H]1OC(=O)C[C@@H](O)[C@H](C)[C@@H](O[C@@H]2O[C@H](C)[C@@H](O[C@H]3C[C@@](C)(O)[C@@H](O)[C@H](C)O3)[C@H](N(C)C)[C@H]2O)[C@@H](CC=O)C[C@@H](C)C(=O)/C=C/C(C)=C/[C@@H]1CO[C@@H]1O[C@H](C)[C@@H](O)[C@@H](OC)[C@H]1OC.O=C(O)[C@H](O)[C@@H](O)C(=O)O
solubility (mole fraction)
Conditions | 293.15 K | 298.15 K | 303.15 K | 308.15 K | 313.15 K | 318.15 K | 323.15 K
in THF | 0.00072 | 0.00084 | 0.00092 | 0.00103 | 0.0012 | 0.00134 | 0.00151
in methanol | 0.00457 | 0.00508 | 0.00579 | 0.00638 | 0.00722 | 0.00841 | 0.00993
